Measurements taken from US12465652B2 (AMGEN INC., priority 2017, dated 2025).

Protein sequences, listed by entry. Tags and fused reporters are not part of them. Residues count along the entry.
UniProt P43220, 24-463 limits assumed: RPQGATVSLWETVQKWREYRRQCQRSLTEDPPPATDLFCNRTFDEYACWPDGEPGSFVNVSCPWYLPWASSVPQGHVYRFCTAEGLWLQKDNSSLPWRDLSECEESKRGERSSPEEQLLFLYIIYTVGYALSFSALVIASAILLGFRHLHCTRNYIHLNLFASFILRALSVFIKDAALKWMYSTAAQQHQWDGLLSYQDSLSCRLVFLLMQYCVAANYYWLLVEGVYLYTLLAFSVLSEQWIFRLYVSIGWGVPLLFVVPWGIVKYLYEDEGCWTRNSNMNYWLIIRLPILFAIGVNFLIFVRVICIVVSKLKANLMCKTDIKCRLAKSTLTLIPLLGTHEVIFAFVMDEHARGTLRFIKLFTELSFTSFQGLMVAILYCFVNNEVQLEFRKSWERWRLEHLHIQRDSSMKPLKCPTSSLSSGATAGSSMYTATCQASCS

What follows are molecules tested against human GLP-IR (Homo sapiens, UniProt P43220) (assay: GLP1 activity | EC50 (pM)).
Source text: Table printed on a drawing sheet, FIG. 1A
Head of the field: GLP1 activity | EC50 (pM)
The patent's description of the figure: FIG. 1A-1B: Synthetic Peptides (FIG. 1A discloses SEQ ID NOS 3948 and 3275-3298 and FIG. 1B discloses SEQ ID NOS 3948 and 3299-3302, all respectively, in order of appearance)
First copying reader's note: The first head row prints a reference sequence (residues at positions 7-35) above the position numbers; two fully empty rows separate groups of peptides.
Where the first naming reader finds the target: passage: CHOK1 cells stably expressing the human GLP-IR were used to measure peptide or recombinant fusion-induced cAMP production
Molecule `CC[C@H](C)[C@H](NC(=O)[C@H](Cc1ccccc1)NC(=O)[C@H](CCC(=O)O)NC(=O)[C@H](CCCCN)NC(=O)[C@H](C)NC(=O)[C@H](C)NC(=O)[C@H](CCC(N)=O)NC(=O)CNC(=O)[C@H](CCC(=O)O)NC(=O)[C@H](CC(C)C)NC(=O)[C@H](Cc1ccc(O)cc1)NC(=O)[C@H](CO)NC(=O)[C@H](CO)NC(=O)[C@@H](NC(=O)[C@H](CC(=O)O)NC(=O)[C@H](CO)NC(=O)[C@@H](NC(=O)[C@H](Cc1ccccc1)NC(=O)[C@@H](NC(=O)CNC(=O)[C@H](C)NC(=O)CNC(=O)[C@@H](N)Cc1c[nH]cn1)[C@@H](C)O)[C@@H](C)O)C(C)C)C(=O)N[C@@H](C)C(=O)N[C@@H](Cc1c[nH]c2ccccc12)C(=O)N[C@@H](CC(C)C)C(=O)N[C@H](C(=O)N[C@@H](CCCCN)C(=O)NCC(=O)O)C(C)C` [3166733#1, HGAGTFTSDVSSYLEGQAAKEFIAWLVKG] has an EC50 of 0.348 nM.
`CC[C@H](C)[C@H](NC(=O)[C@H](Cc1ccccc1)NC(=O)[C@H](CCC(=O)O)NC(=O)[C@H](CCCCN)NC(=O)[C@H](C)NC(=O)[C@H](C)NC(=O)[C@H](CCC(N)=O)NC(=O)CNC(=O)[C@H](CCC(=O)O)NC(=O)[C@H](CC(C)C)NC(=O)[C@H](Cc1ccc(O)cc1)NC(=O)[C@H](CO)NC(=O)[C@H](CO)NC(=O)[C@@H](NC(=O)[C@H](CC(=O)O)NC(=O)[C@H](CO)NC(=O)[C@@H](NC(=O)[C@H](Cc1ccccc1)NC(=O)[C@@H](NC(=O)CNC(=O)[C@H](Cc1ccccc1)NC(=O)CNC(=O)[C@@H](N)Cc1c[nH]cn1)[C@@H](C)O)[C@@H](C)O)C(C)C)C(=O)N[C@@H](C)C(=O)N[C@@H](Cc1c[nH]c2ccccc12)C(=O)N[C@@H](CC(C)C)C(=O)N[C@H](C(=O)N[C@@H](CCCCN)C(=O)NCC(=O)O)C(C)C` [3166737#1, HGFGTFTSDVSSYLEGQAAKEFIAWLVKG] gave an EC50 of 3.04 nM.
`CC[C@H](C)[C@H](NC(=O)[C@H](Cc1ccccc1)NC(=O)[C@H](CCC(=O)O)NC(=O)[C@H](CCCCN)NC(=O)[C@H](C)NC(=O)[C@H](C)NC(=O)[C@H](CCC(N)=O)NC(=O)CNC(=O)[C@H](CCC(=O)O)NC(=O)[C@H](CC(C)C)NC(=O)[C@H](Cc1ccc(O)cc1)NC(=O)[C@H](CO)NC(=O)[C@H](CO)NC(=O)[C@@H](NC(=O)[C@H](CC(=O)O)NC(=O)[C@H](CO)NC(=O)[C@@H](NC(=O)[C@H](Cc1ccccc1)NC(=O)[C@@H](NC(=O)CNC(=O)[C@H](Cc1ccc(O)cc1)NC(=O)CNC(=O)[C@@H](N)Cc1c[nH]cn1)[C@@H](C)O)[C@@H](C)O)C(C)C)C(=O)N[C@@H](C)C(=O)N[C@@H](Cc1c[nH]c2ccccc12)C(=O)N[C@@H](CC(C)C)C(=O)N[C@H](C(=O)N[C@@H](CCCCN)C(=O)NCC(=O)O)C(C)C` [3166738#1, HGYGTFTSDVSSYLEGQAAKEFIAWLVKG] showed an EC50 of 2.83 nM.
`CC[C@H](C)[C@H](NC(=O)[C@H](Cc1ccccc1)NC(=O)[C@H](CCC(=O)O)NC(=O)[C@H](CCCCN)NC(=O)[C@H](C)NC(=O)[C@H](C)NC(=O)[C@H](CCC(N)=O)NC(=O)CNC(=O)[C@H](CCC(=O)O)NC(=O)[C@H](CC(C)C)NC(=O)[C@H](Cc1ccc(O)cc1)NC(=O)[C@H](CO)NC(=O)[C@H](CO)NC(=O)[C@@H](NC(=O)[C@H](CC(=O)O)NC(=O)[C@H](CO)NC(=O)[C@@H](NC(=O)[C@H](Cc1ccccc1)NC(=O)[C@@H](NC(=O)CNC(=O)[C@@H](NC(=O)CNC(=O)[C@@H](N)Cc1c[nH]cn1)[C@@H](C)O)[C@@H](C)O)[C@@H](C)O)C(C)C)C(=O)N[C@@H](C)C(=O)N[C@@H](Cc1c[nH]c2ccccc12)C(=O)N[C@@H](CC(C)C)C(=O)N[C@H](C(=O)N[C@@H](CCCCN)C(=O)NCC(=O)O)C(C)C` [3166739#1, HGTGTFTSDVSSYLEGQAAKEFIAWLVKG] showed an EC50 of 0.162 nM.
`CC[C@H](C)[C@H](NC(=O)[C@H](Cc1ccccc1)NC(=O)[C@H](CCC(=O)O)NC(=O)[C@H](CCCCN)NC(=O)[C@H](C)NC(=O)[C@H](C)NC(=O)[C@H](CCC(N)=O)NC(=O)CNC(=O)[C@H](CCC(=O)O)NC(=O)[C@H](CC(C)C)NC(=O)[C@H](Cc1ccc(O)cc1)NC(=O)[C@H](CO)NC(=O)[C@H](CO)NC(=O)[C@@H](NC(=O)[C@H](CC(=O)O)NC(=O)[C@H](CO)NC(=O)[C@@H](NC(=O)[C@H](Cc1ccccc1)NC(=O)[C@@H](NC(=O)CNC(=O)[C@H](CC(N)=O)NC(=O)CNC(=O)[C@@H](N)Cc1c[nH]cn1)[C@@H](C)O)[C@@H](C)O)C(C)C)C(=O)N[C@@H](C)C(=O)N[C@@H](Cc1c[nH]c2ccccc12)C(=O)N[C@@H](CC(C)C)C(=O)N[C@H](C(=O)N[C@@H](CCCCN)C(=O)NCC(=O)O)C(C)C` [3166740#1, HGNGTFTSDVSSYLEGQAAKEFIAWLVKG] gave an EC50 of 0.28 nM.
`CC[C@H](C)[C@H](NC(=O)[C@H](Cc1ccccc1)NC(=O)[C@H](CCC(=O)O)NC(=O)[C@H](CCCCN)NC(=O)[C@H](C)NC(=O)[C@H](C)NC(=O)[C@H](CCC(N)=O)NC(=O)CNC(=O)[C@H](CCC(=O)O)NC(=O)[C@H](CC(C)C)NC(=O)[C@H](Cc1ccc(O)cc1)NC(=O)[C@H](CO)NC(=O)[C@H](CO)NC(=O)[C@@H](NC(=O)[C@H](CC(=O)O)NC(=O)[C@H](CO)NC(=O)[C@@H](NC(=O)[C@H](Cc1ccccc1)NC(=O)[C@@H](NC(=O)CNC(=O)[C@H](Cc1c[nH]c2ccccc12)NC(=O)CNC(=O)[C@@H](N)Cc1c[nH]cn1)[C@@H](C)O)[C@@H](C)O)C(C)C)C(=O)N[C@@H](C)C(=O)N[C@@H](Cc1c[nH]c2ccccc12)C(=O)N[C@@H](CC(C)C)C(=O)N[C@H](C(=O)N[C@@H](CCCCN)C(=O)NCC(=O)O)C(C)C` [3166744#1, HGWGTFTSDVSSYLEGQAAKEFIAWLVKG] was tested, and the EC50 was 2.82 nM.
For `CC[C@H](C)[C@H](NC(=O)[C@H](Cc1ccccc1)NC(=O)[C@H](CCC(=O)O)NC(=O)[C@H](CCCCN)NC(=O)[C@H](C)NC(=O)[C@H](C)NC(=O)[C@H](CCC(N)=O)NC(=O)CNC(=O)[C@H](CCC(=O)O)NC(=O)[C@H](CC(C)C)NC(=O)[C@H](Cc1ccc(O)cc1)NC(=O)[C@H](CO)NC(=O)[C@H](CO)NC(=O)[C@@H](NC(=O)[C@H](CC(=O)O)NC(=O)[C@H](CO)NC(=O)[C@@H](NC(=O)[C@H](Cc1ccccc1)NC(=O)[C@@H](NC(=O)CNC(=O)[C@@H]1CCCN1C(=O)CNC(=O)[C@@H](N)Cc1c[nH]cn1)[C@@H](C)O)[C@@H](C)O)C(C)C)C(=O)N[C@@H](C)C(=O)N[C@@H](Cc1c[nH]c2ccccc12)C(=O)N[C@@H](CC(C)C)C(=O)N[C@H](C(=O)N[C@@H](CCCCN)C(=O)NCC(=O)O)C(C)C` [3166745#1, HGPGTFTSDVSSYLEGQAAKEFIAWLVKG], the EC50 was 0.376 nM.
In the case of `CC[C@H](C)[C@H](NC(=O)[C@H](Cc1ccccc1)NC(=O)[C@H](CCC(=O)O)NC(=O)[C@H](CCCCN)NC(=O)[C@H](C)NC(=O)[C@H](C)NC(=O)[C@H](CCC(N)=O)NC(=O)CNC(=O)[C@H](CCC(=O)O)NC(=O)[C@H](CC(C)C)NC(=O)[C@H](Cc1ccc(O)cc1)NC(=O)[C@H](CO)NC(=O)[C@H](CO)NC(=O)[C@@H](NC(=O)[C@H](CC(=O)O)NC(=O)[C@H](CO)NC(=O)[C@@H](NC(=O)[C@H](Cc1ccccc1)NC(=O)[C@@H](NC(=O)CNC(=O)[C@H](CO)NC(=O)CNC(=O)[C@@H](N)Cc1c[nH]cn1)[C@@H](C)O)[C@@H](C)O)C(C)C)C(=O)N[C@@H](C)C(=O)N[C@@H](Cc1c[nH]c2ccccc12)C(=O)N[C@@H](CC(C)C)C(=O)N[C@H](C(=O)N[C@@H](CCCCN)C(=O)NCC(=O)O)C(C)C` [3166747#1, HGSGTFTSDVSSYLEGQAAKEFIAWLVKG], the EC50 is reported as 0.426 nM.
